{
  "source": "patent US12257238B2",
  "about": "“Magnesium biotinate compositions and methods of use” (Nutrition21, LLC, priority 2016, dated 2025)",
  "key": {"[1]": {"tested_on": "peripheral blood mononuclear cells (PBMC)", "test": "Mitochondrial metabolic activity, colorimetric MTT assay", "type": "cell-based", "details": "biotin-starved cultures, 0.05 mg/L and serial dilutions, 24 hours; compared to D-biotin, FIG. 5"}, "[2]": {"tested_on": "acetyl-CoA carboxylase ACC-2", "details": "rats, 0.01, 1, 100 mg/kg; compared to biotin, FIG. 4B"}},
  "data": [
    {"smiles": "O=C(O)CCCC[C@@H]1SC[C@@H]2NC(=O)N[C@@H]21", "note": "[magnesium D-biotinate]", "values": [
      {"measurement": "Relative mitochondrial activity (MTT)", "setting": "[1]", "result": "highly improved, unexpected, and significant result over the D-biotin administration"},
      {"measurement": "acetyl-CoA carboxylase ACC-2 activity", "setting": "[2]", "result": "unexpectedly improved"}
    ]}
  ]
}
